The target of assay [1] is Nurr1 LBD / NCoR ID1 (Homo sapiens, UniProt P43354). Put plainly: Co-regulator recruitment HTRF, NCoR ID1 peptide. (TR-FRET usually uses a lanthanide donor and a delayed reading to cut background.)
The target of assay [2] is Nurr1 LBD / SMRT ID2 (Homo sapiens, UniProt P43354). Kind of assay: Co-regulator recruitment HTRF, SMRT ID2 peptide.
Assay [3] deals with Nurr1 LBD / RIP140L6 (Homo sapiens, UniProt P43354). Put plainly: Co-regulator recruitment HTRF, RIP140L6 peptide.
The target of assay [4] is Nurr1 LBD / PRIPRAP250 (Homo sapiens, UniProt P43354). Put plainly: Co-regulator recruitment HTRF, PRIPRAP250 peptide.

Amino acid sequences for entries named in this document (tags omitted). Residues count along the entry.
UniProt P43354, 364-598: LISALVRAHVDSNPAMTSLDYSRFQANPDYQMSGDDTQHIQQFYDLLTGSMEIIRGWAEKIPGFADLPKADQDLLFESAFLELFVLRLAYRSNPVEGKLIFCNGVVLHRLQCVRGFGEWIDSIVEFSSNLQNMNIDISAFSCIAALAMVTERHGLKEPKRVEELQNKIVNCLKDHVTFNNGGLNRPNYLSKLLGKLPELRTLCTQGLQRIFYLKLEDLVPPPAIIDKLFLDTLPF

On to `CCN(CC)CCCC(C)Nc1ccnc2cc(Cl)ccc12` (stereo not drawn) [CQ, chloroquine], for which the concentration giving a half-maximal response (EC50) in assay [1] was more than 100 µM; in assay [2], more than 100 µM; in assay [3], 61 µM; in assay [4] it was more than 100 µM.
`Cc1ccc(Cl)c(Nc2ccccc2C(=O)O)c1Cl` [MFA, Meclofenamic acid]: the half-maximal inhibitory concentration (IC50) in assay [1] was found to be 34 µM; in assay [2], 26 µM; in assay [3], 33 µM; in assay [4] it was 17 µM.
Turning to `CCC(=O)NS(=O)(=O)c1ccc(-c2c(-c3ccccc3)noc2C)cc1` [parecoxib], the IC50 stood at 89 µM in assay [1] and 51 µM in assay [2]. Besides, in assay [3] ([…]), the “RIP140L6 recruitment, activity in words” value is given as “Inactive”. Further, the “PRIPRAP250 recruitment, activity in words” value in assay [4] ([…]) is “Inactive”.

Usually EC50 stands for the concentration that produces a half-maximal response. A word on the IC50: it is the midpoint of a concentration-inhibition curve. A lower IC50 goes with greater potency in that assay.

The values are drawn from paper PMC9814838, “The orphan nuclear receptor Nurr1 is responsive to non-steroidal anti-inflammatory drugs” (Communications Chemistry, 2020).
